This data set is described as follows: Molar absorptivity of phenolic precursors of substrates. The data set is classed as physicochemical. The following applies: 405 nm, pH 7.5.

Consider `Cc1cc([N+](=O)[O-])cc([N+](=O)[O-])c1O`, for which the “Molar Absorptivity (εmax)” value is recorded as 11.0 (405 nm, pH 7.5).

Turning to `O=[N+]([O-])c1cc(Cl)c(O)c([N+](=O)[O-])c1`, the “Molar Absorptivity (εmax)” value is 11.5 (405 nm, pH 7.5).

The values are drawn from EP0292169B1, “Substrates for B-galactosidase” (Bayer Corporation, priority 1987, dated 1988).
